Source: PubChem
In the library only some 2.2% were active in any assay of this set; here they are far more common.
S100A4 MyoIIA = inhibitors of S100A4-myosin IIA peptide binding, primary screen, biochemical, fluorescence polarization, TAMRA-MyoIIA peptide. inhibition, % at 10.7 µM. actives 0.14% (n = 360,000);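 active = mean inhibition of at least 70% across replicates, with every replicate also reaching that level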
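Test system: S100A4 monomer protein; Medium: HEPES pH 7.2 with CaCl2, KCl, NaCl, DTT, Triton; Probe or stimulus: TAMRA-labelled myosin IIA heavy-chain peptide probe, 5 nM; Doses: one dose per compound; Times: polarization read 5 min after assay mix addition, stable 5–60 min; Benchmarks: neutral control DMSO, positive control TFP.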
FGF22 binding = binders of human FGF22 protein, primary screen, FGF22 synaptogenesis inhibitor project, biophysical, thermal shift, single point | actives 1.5% (n = 340,000) | AID 651658, 2012 | Fibroblast growth factor 22 (Homo sapiens), Q9HCT0 | recombinant FGF22 thermal shift, SYPRO orange fluorescence; percent of sucrose octasulfate shift, DMSO zero | activity (Tm shift, normalised), % at 9.99 µM;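 active = mean Tm shift, scaled 0 neutral to 100 positive control, at about 1.3% or above, every replicate too, limit read from the data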
ERp5 inh = inhibitors of ERp5-driven insulin aggregation, primary screen, biochemical, turbidity, absorbance 650 nm, single point | Protein disulfide-isomerase A6 (Homo sapiens), Q15084 | 90 min | inhibition, % at 9.99 µM | actives 0.05% (n = 350,000) | AID 651711, 2012;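 active = mean replicate inhibition above about 25%, with every replicate also reaching it, limit read from the data, passing the limit was not always enough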
Yeast UUG start = yeast start codon fidelity modulation. S. cerevisiae UUG-firefly luciferase reporter, luminescence/redox ratio. activity score, % at 18.7 µM. 0.13% of 350,000 active;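 active means replicate mean at a twofold rise or more, about +100% in these data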;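 further: firefly luciferase made from a UUG start codon reports start codon fidelity; reporter light over untreated wells divided by growth signal over untreated wells; some hits fall short of that in this replicate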
SIRT5 block = SIRT5 desuccinylase inhibitors, primary screen, biochemical, fluorescence imaging, single point, set 5 | NAD-dependent protein deacylase sirtuin-5, mitochondrial (Homo sapiens), Q9NXA8 | Purified SirT5, succinyl-peptide AMC, trypsin-coupled fluorescence | inhibition, % at 15 µM | actives 1.1% (n = 330,000); in the data active = inhibition above about 15%
PDI inh = inhibitors of human PDI, primary screen, biochemical, turbidity, single point, plate reader. PDI insulin aggregation turbidity, A650, 90 min. inhibition, % at 10 µM. actives 0.052% (n = 350,000). Protein disulfide-isomerase (Homo sapiens), P07237. AID 588391, 2011;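 active = mean inhibition across replicates of 30% or more, whatever share of single replicates reach that level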
* = called active by the depositor; / = not tested or not shown.

Chains of the proteins cited; added tags and fusions are not shown.
Protein disulfide-isomerase (Homo sapiens), P07237, UniProt P07237, whole entry, looked up: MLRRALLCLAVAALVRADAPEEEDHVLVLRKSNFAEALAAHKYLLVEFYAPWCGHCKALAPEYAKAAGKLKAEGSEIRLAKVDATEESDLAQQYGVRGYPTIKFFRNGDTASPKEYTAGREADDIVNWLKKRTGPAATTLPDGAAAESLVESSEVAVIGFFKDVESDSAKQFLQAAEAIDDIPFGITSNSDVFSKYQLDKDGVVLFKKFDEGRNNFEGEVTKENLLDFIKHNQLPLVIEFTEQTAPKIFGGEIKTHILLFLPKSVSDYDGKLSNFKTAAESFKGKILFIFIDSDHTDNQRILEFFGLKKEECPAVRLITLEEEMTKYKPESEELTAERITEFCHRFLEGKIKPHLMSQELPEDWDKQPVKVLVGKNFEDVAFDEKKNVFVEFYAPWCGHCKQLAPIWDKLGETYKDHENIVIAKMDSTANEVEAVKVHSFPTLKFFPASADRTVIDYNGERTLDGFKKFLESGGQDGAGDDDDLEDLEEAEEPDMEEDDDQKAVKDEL

Below each SMILES – S100A4 MyoIIA	FGF22 binding	ERp5 inh	Yeast UUG start	SIRT5 block	PDI inh
- C[C@@H]1CCCCO[C@H](CN(C)C(=O)CCCN(C)C)[C@H](C)CN([C@@H](C)CO)C(=O)c2cc(NS(C)(=O)=O)ccc2O1
  3.7	-0.5	3.4	14.4	-2.1	/
- C=CCNC(=O)/C(C#N)=C/c1ccc(C(=O)O)cc1
  -0.4	0.4	-5.0	-20.3	-5.9	-4.5
- C=CCNC(=O)/C(C#N)=C/c1ccccc1Cl
  -2.6	43.3*	0.4	/	0.8	1.0
- O=C(NCCCO)c1ccc2nc(-c3ccco3)c(-c3ccco3)nc2c1
  -6.9	43.0*	-4.4	/	15.2*	5.9
- C[C@H]1CN([C@@H](C)CO)C(=O)c2cccc(NC(=O)c3cnccn3)c2O[C@@H]1CN(C)S(=O)(=O)c1ccc(Cl)cc1
  /	/	/	12.1	/	/
- Nc1ccc(S(=O)(=O)c2ccccc2)nc1
  6.1	-0.1	5.7	-8.5	-1.6	14.1
- O=S(=O)(c1ccccc1)c1ccc(C(F)(F)F)cn1
  -0.6	43.6*	1.8	/	1.2	-5.0
- COc1ccc(CCN=C(C)C2=C(O)C(c3ccccc3)OC2=O)cc1OC (stereo not drawn)
  -5.3	42.9*	1.6	/	0.5	-0.3
- CCC(=NCCc1ccc(OC)c(OC)c1)c1ccccc1O
  3.9	-0.2	-0.6	1.0	0.2	-2.0
- CC(=O)N1CCN(CC(=O)Nc2ccc3c(c2)CCC3)CC1
  2.8	44.5*	-3.8	/	-1.2	2.5
- O=C(CN1CCCC1)Nc1ccc2c(c1)CCC2
  -1.4	42.0	3.5	/	-10.7	-2.2
- CC(=O)N1CCN(CC(=O)Nc2ccc(C)c(S(=O)(=O)N(C)C)c2)CC1
  -0.5	43.1*	6.0	/	-3.4	-0.1
- CO[C@H]1CC[C@@H]2CCOc3ccc(C#N)cc3C(=O)N(C)C[C@H](C)C(=O)N(C)C[C@H]1O2
  -4.3	-0.1	5.8	/	-3.7	/
- O=[N+]([O-])/C=C/c1c(OCc2ccccc2)ccc2ccccc12
  /	/	/	285.8*	/	-4.1
- CC(C)Cc1nnc(NC(=O)Cc2ccc([N+](=O)[O-])cc2)s1
  -3.3	0.4	8.4	-14.8	28.8*	0.0
- CC(C)Cc1nnc(NC(=O)CCC(=O)N2CCN(c3ccc([N+](=O)[O-])cc3)CC2)s1
  7.1	-0.1	-0.5	-5.7	7.7	1.2
- Cn1[nH]c(C(F)(F)F)c(C=NCc2ccc(Cl)cc2)c1=O
  7.5	0.1	2.0	-6.2	1.7	3.3
- Cc1[nH][nH]c(=O)c1C=NCc1ccc(Cl)cc1
  -0.5	43.4*	1.2	-17.3	0.9	-5.2
- CCCNC(=O)C[C@H]1CC[C@@H]2[C@H](COc3ccc(NC(=O)NC(C)C)cc3C(=O)N2C)O1
  /	0.1	/	-6.7	-6.2	/
- O=C(NC(=S)NC1CCCC1)c1ccccc1
  -1.2	-0.2	8.6	-20.7	-1.2	6.1
- O=C(NC(CC1CCCCC1)C(=O)O)c1ccccc1 (stereo not drawn)
  4.4	43.7*	-5.5	-14.8	-1.9	-1.5
- O=C(NC1CCCCCCC1O)c1ccccc1 (stereo not drawn)
  -15.8	-0.1	1.0	/	15.6*	3.5
- O=C(NC1CCCCC1c1ccccc1)c1ccccc1 (stereo not drawn)
  -5.7	43.6*	6.9	/	/	-1.0
- COc1ccc(C[C@@H]2CCn3cc(nn3)COC[C@H](C(C)C)NC2=O)cc1
  -4.4	-0.2	1.7	/	3.2	/
- COCC(=O)N1CC2(C1)[C@@H](c1ccc(-c3ccc(F)cc3)cc1)[C@H](CO)N2C(C)=O
  /	/	0.4	/	1.1	/
- Cc1ccc(S(=O)(=O)N[C@H]2CC[C@@H](CC(=O)NC3CCCCC3)O[C@@H]2CO)cc1
  12.1	0.1	5.2	-7.5	-3.5	/
- O=C(C[C@@H]1C=C[C@H](NC(=O)Nc2ccccc2F)[C@H](CO)O1)NCc1ccccc1
  -3.1	/	3.7	/	0.9	/
- Cc1ccc(S(=O)(=O)Nc2ccc3c(c2)CC(=O)N([C@H](C)CO)C[C@H](C)[C@@H](CN(C)Cc2ccc(Cl)c(Cl)c2)O3)cc1
  -19.8	-0.3	-3.6	17.8	0.9	/

A second format for 2 compounds above:
> O=C(NC(CC1CCCCC1)C(=O)O)c1ccccc1 (stereo not drawn)
- S100A4 MyoIIA: 4.4
- FGF22 binding: 43.7*
- ERp5 inh: -5.5
- Yeast UUG start: -14.8
- SIRT5 block: -1.9
- PDI inh: -1.5

> O=C(NC1CCCCCCC1O)c1ccccc1 (stereo not drawn)
- S100A4 MyoIIA: -15.8
- FGF22 binding: -0.1
- ERp5 inh: 1.0
- Yeast UUG start: /
- SIRT5 block: 15.6*
- PDI inh: 3.5
